Literature values, collected in patent publication US7815912B2, “Method of controlled ovarian hyperstimulation and pharmaceutical kit for use in such method” (Ares Trading, S.A., priority 2002, dated 2010).

Settings: cited from earlier work

Substance | in vivo half-life (t1/2)
LH isolated from urine: luteinising hormone isolated from female urine | 0.167 to 0.333 h
recLH: LH obtained from a recombinant cell line | 12 to 13 h
